The values that follow are results of earlier work, collected in patent publication EP1655608A1, “CFTR as a component of an autophagy signaling pathway, applications thereof to autophagic diseases, and determination of cystic fibrosis as an autophagic disease” (priority 2004, dated 2006).

The data set deals with Sertoli cell. As to conditions: reported, ref (84); cited from earlier work.

As to biphenol A, the “Sertoli cell vacuolation in vivo” value was “reported to promote Sertoli cell vacuolation”.
